## Ab-95 light chain CDR variants: yeast mating affinities

Data: MIT Lincoln Laboratory AlphaSeq set, Engelhart et al. 2022, doi:10.1038/s41597-022-01779-4, as distributed in FLAb.

The target is the same throughout: PDVDLGDISGINAS, from the HR2 region of SARS-CoV-2 spike.

The variants keep the heavy chain, the linker and the frameworks of Ab-95 (scFv order VH, a (GGGGS)3 linker, VL).
VH: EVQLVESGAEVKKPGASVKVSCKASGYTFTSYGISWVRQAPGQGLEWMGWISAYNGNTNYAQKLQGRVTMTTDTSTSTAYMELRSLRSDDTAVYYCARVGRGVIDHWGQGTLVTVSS
VL: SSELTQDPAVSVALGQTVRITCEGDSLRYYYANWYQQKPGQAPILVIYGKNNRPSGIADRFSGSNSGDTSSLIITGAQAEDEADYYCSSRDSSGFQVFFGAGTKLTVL

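The starting antibody came from a phage panning campaign against this peptide. The library (AAYL52) carries one to three amino acid substitutions per variant, with no insertions or deletions. AlphaSeq pools MATa yeast showing the antibodies with MATalpha yeast showing the peptide. Pairs that bind mate more often; barcode pairs of the diploids are counted by sequencing. Read counts were normalised to the haploid input and turned into Kd by a linear fit to BCL2-family pairs of known affinity, for each replicate. The assay was run in three technical replicates.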

Each variant's VL is given in full. Numbers give log10(Kd / nM), so 0 is 1 nM and 3 is 1 µM. Smaller is tighter. "ND" marks a missing value. The strain was present, yet no cells mated with the target were sequenced in that replicate, which points to weak or no binding. Parent in this assay: reference entry 2.31, copy in this library 2.25. As a blank, each scFv also met three strains without target: over library AAYL52, 28% of these pairings were detected, typically at 3.91 and seldom below 2.90. Also given: how often the same scFv was detected with the empty control strains, with their mean in brackets.

VL	log10 Kd, replicates	signal with controls
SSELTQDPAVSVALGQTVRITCEGDSLRYYYANWYQQKPGQAPILVIYGKNNAPSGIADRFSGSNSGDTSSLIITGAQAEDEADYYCSSRDNSGHQVFFGAGTKLTVL	ND / ND / ND	0/9
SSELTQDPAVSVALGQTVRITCEGHSLRYYYACWYQQKPGQAPILVIYGKNNRPSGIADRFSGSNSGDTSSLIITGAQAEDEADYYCCSRDSSGFQVFFGAGTKLTVL	4.31 / 2.51 / 2.32	3/9 (3.41)
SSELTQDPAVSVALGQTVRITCEGWSLRYYYANWYQQKPGQAPILVIYGKNNRPSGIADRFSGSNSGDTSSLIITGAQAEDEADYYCSVRDSSGFSVFFGAGTKLTVL	2.80 / 3.39 / 2.22	4/9 (4.27)
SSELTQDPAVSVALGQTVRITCEWDSLRYYYANWYQQKPGQAPILVIYGKNTRPSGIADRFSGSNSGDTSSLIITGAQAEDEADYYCSSRDSSGFQVFFGAGTKLTVL	2.89 / 3.37 / 3.08	4/9 (4.27)
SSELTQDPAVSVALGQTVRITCEGDSLRYNYANWYQQKPGQAPILVIYGKNNRPSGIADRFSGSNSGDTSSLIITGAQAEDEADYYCSSRDSSGFPVFFGAGTKLTVL	2.15 / 2.17 / 1.56	2/9 (3.59)
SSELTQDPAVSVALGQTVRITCEGDSLRYYNANWYQQKPGQAPILVIYGKNNRPSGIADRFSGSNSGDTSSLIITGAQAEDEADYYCSSRDLGGFQVFFGAGTKLTVL	2.72 / 3.21 / 3.21	0/9
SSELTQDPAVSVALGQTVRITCEGDSLRYYYANWYQQKPGQAPILVIYGKNNRPSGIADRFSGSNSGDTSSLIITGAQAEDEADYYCTKRDSSGFQVCFGAGTKLTVL	ND / ND / ND	1/9 (4.44)
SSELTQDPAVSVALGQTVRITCEGYSLRYYYSNWYQQKPGQAPILVIYGKNNRPSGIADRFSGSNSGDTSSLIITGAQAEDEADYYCSSRNSSGFQVFFGAGTKLTVL	ND / 4.78 / ND	3/9 (4.35)
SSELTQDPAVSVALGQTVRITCETDSLRYYYANWYQQKPGQAPILVIYGKNNGFSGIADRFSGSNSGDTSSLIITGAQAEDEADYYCSSRDSSGFQVFFGAGTKLTVL	4.63 / 3.62 / ND	2/9 (4.02)
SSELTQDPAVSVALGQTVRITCEGDSLRYYYANWYQQKPGQAPILVIYGKNNAPSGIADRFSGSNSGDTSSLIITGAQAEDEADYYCSSRDISGFQMFFGAGTKLTVL	3.69 / ND / 4.59	2/9 (4.88)
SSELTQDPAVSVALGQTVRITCGGDSLRYYYANWYQQKPGQAPILVIYGKMNNPSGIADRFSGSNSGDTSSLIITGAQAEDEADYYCSSRDSSGFQVFFGAGTKLTVL	4.23 / ND / ND	1/9 (4.35)
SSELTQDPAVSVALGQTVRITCEGDSLRSYTANWYQQKPGQAPILVIYGKNNRPSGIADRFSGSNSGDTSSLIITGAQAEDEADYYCSSRDSSGFQVFFGAGTKLTVL	2.62 / 1.69 / 2.29	4/9 (3.98)
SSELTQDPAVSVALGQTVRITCEGESLRYYGANWYQQKPGQAPILVIYGKNPRPSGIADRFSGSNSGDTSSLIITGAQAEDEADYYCSSRDSSGFQVFFGAGTKLTVL	2.46 / 2.40 / 1.72	4/9 (3.43)
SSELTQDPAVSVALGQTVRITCEGDSLWYTYANWYQQKPGQAPILVIYGKNNRPSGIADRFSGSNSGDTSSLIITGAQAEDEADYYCSSRDSSGFFVFFGAGTKLTVL	2.12 / 2.05 / 2.18	2/9 (4.12)
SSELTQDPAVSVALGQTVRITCEGDSLRYYYANWYQQKPGQAPILVIYGKNTRDSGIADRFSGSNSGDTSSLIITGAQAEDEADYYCSSRDSSTFQVFFGAGTKLTVL	4.34 / 3.97 / ND	2/9 (3.99)
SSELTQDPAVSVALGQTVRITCEGDELRYHYANWYQQKPGQAPILVIYGKNNRPSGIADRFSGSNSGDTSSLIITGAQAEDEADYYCSSRDSSGGQVFFGAGTKLTVL	2.53 / 2.53 / 2.30	2/9 (3.86)
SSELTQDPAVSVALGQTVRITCEGDSLRYYYANWYQQKPGQAPILVIYGKNNRCSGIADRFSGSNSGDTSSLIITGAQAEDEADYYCSLRDSSGFQLFFGAGTKLTVL	3.12 / 3.35 / 3.04	3/9 (3.63)
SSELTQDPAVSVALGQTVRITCEMDQLRYYYANWYQQKPGQAPILVIYGKNNRPCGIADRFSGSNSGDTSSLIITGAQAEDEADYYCSSRDSSGFQVFFGAGTKLTVL	ND / ND / ND	3/9 (3.48)

The first 2 variants above that were never detected:

VL	log10 Kd, replicates	signal with controls
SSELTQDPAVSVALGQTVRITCEGDSLRYYYANWYQQKPGQAPILVIYGKNNAPSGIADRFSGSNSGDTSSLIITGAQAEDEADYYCSSRDNSGHQVFFGAGTKLTVL	ND / ND / ND	0/9
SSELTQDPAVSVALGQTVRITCEGDSLRYYYANWYQQKPGQAPILVIYGKNNRPSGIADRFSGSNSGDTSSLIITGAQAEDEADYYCTKRDSSGFQVCFGAGTKLTVL	ND / ND / ND	1/9 (4.44)